According to US20210188969A1, “ANTIBODIES THAT BIND INTERLEUKIN-2 AND USES THEREOF” (published 2021):

Target: human IL-2 Rαβγ (trimeric IL-2 receptor) on cells (human) (UniProt P01589)

Substance: IL-2/MAB602 complex (from UniProt P60568)
- EC50 of IL-2-induced phosphorylation of STAT5a,b, NK-92 cells, IL-2 pre-complexed with 100 nM antibody: 900 pM
